{"source": "paper PMC9654333", "about": "“AmyP53, a Therapeutic Peptide Candidate for the Treatment of Alzheimer’s and Parkinson’s Disease: Safety, Stability, Pharmacokinetics Parameters and Nose-to Brain Delivery” (International Journal of Molecular Sciences, 2022)", "origin": "cited, not measured here", "design": "method as in PMID 22963731, PMID 23444784, PMID 33551991, PMID 17720549, PMID 15728733", "conditions": "therapeutic peptides delivered to the brain via the intranasal route; cited from earlier work", "data": [{"substance": "β-IFN: therapeutic peptide delivered to the brain via the intranasal route, 166 aa", "values": [{"measurement": "pHi", "value": 8.9}]}]}
